Antibody variant affinities, Ab-14 heavy chain, assay B

Target peptide (SARS-CoV-2 spike, HR2 region): PDVDLGDISGINAS

Parent scFv Ab-14: VH joined to VL by a (GGGGS)3 linker. Changes lie in the heavy chain CDRs alone.
VH: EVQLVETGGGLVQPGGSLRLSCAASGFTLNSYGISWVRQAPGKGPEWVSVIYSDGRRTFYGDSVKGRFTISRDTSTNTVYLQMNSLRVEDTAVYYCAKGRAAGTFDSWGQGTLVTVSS
VL: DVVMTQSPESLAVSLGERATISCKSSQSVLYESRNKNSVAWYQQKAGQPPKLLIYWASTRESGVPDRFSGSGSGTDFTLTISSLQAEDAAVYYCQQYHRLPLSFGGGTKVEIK

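The starting antibody came from a phage panning campaign against this peptide. This is the validation round: designs drawn from the data on random variants, tested in the same kind of assay. Group labels follow the data file (Ctrl: baseline library sampled from a position-specific scoring matrix, with some repeated check sequences; GPLM: also part of the Gaussian process libraries; Gen: genetic algorithm; a sequence that several methods proposed may carry one label only). Affinity was read by AlphaSeq, a pooled yeast mating assay with surface-displayed partners. After mating in shaken culture at 30 °C for 16 h, diploids were selected and their barcode pairs sequenced. Each replicate has its own calibration line, from reference interactions of the BCL2 family. Mating was done six times.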

Changes read parent residue, position, new residue, counted from the first residue of the VH shown.
The read-out is the apparent dissociation constant on a log10 scale (nM): the lower, the stronger.
Where no diploid with the target was found in that replicate, the entry reads "n.d.": below detection, most likely a poor binder, though not proof of it.
Some sequences occur more than once in the pool; their replicates are listed entry by entry, parted by semicolons.
As a blank, each scFv also met three strains without target: over all heavy chain designs, 1% of these pairings were detected, typically at 2.08 and seldom below 0.84. For each scFv, signals with the empty controls are counted beside the result, with their mean in brackets.
In the paper, a design with two or fewer of six values counts as a poor binder.
A sequence measured in both rounds can read differently, since the two assays cover different ranges.
The parent sequence was in this pool as ten entries: three were never detected, three once, and four in most replicates, with averages from 0.34 to 2.37.

changes,group,"log10 Kd, replicates",empty controls
F27L/S31E/G61Q,Ctrl,n.d. / 1.83 / 2.83 / 1.28 / 2.34 / 2.03,1/18 (2.17)
T28C/G61S/S107T,Ctrl,n.d. / n.d. / n.d. / n.d. / n.d. / n.d.,0/18
F27T/K65S/R100S,Ctrl,n.d. / n.d. / n.d. / n.d. / n.d. / n.d.,1/18 (2.58)
T28P/I34Y/A102E/S107D,Ctrl,n.d. / n.d. / n.d. / n.d. / n.d. / n.d.,0/18
F27T/G61S/S107T,Ctrl,1.20 / n.d. / 1.75 / n.d. / 2.11 / 1.53,0/18
F27E/R56L/R100A/D106L,Ctrl,n.d. / n.d. / n.d. / n.d. / n.d. / n.d.,0/18
N30L/S31M/G61Q/A101D,Ctrl,n.d. / n.d. / n.d. / n.d. / n.d. / n.d.,0/18
G99R/A101L,Ctrl,n.d. / n.d. / n.d. / n.d. / n.d. / n.d.,0/18
F27R,Ctrl,n.d. / n.d. / n.d. / n.d. / n.d. / n.d.,0/18
G61E/A101V/T104Q/S107H,Ctrl,n.d. / n.d. / n.d. / n.d. / n.d. / n.d.,0/18
Y32Q/G61I/R100Q,Ctrl,1.29 / 1.83 / 0.87 / n.d. / n.d. / 1.30,0/18
S31D/S107P,Ctrl,n.d. / 2.37 / 1.54 / n.d. / n.d. / n.d.,0/18
N30K/A101K,Ctrl,n.d. / n.d. / n.d. / n.d. / n.d. / n.d.,0/18
I51D/R56L,Ctrl,n.d. / n.d. / n.d. / n.d. / n.d. / n.d.,0/18
G26K/T28D/S31M/I34S/G61Q/F105W,Ctrl,n.d. / n.d. / n.d. / n.d. / n.d. / n.d.,0/18
G26R/T28N/S31D,Ctrl,n.d. / n.d. / n.d. / n.d. / 3.03 / n.d.,0/18
S31E/G99T,Ctrl,n.d. / n.d. / n.d. / n.d. / n.d. / n.d.,0/18
S31D/V50L/R57K/S63K,Ctrl,n.d. / n.d. / n.d. / n.d. / n.d. / n.d.,0/18
S31N/G61M,Ctrl,n.d. / n.d. / n.d. / 2.40 / n.d. / 1.90,0/18
F27V/S63N/A101N/A102V/D106F,Ctrl,n.d. / n.d. / n.d. / n.d. / n.d. / n.d.,0/18
R100N,Ctrl,1.75 / 2.60 / n.d. / 0.76 / 1.62 / 1.88,0/18
G61D/S63E,Ctrl,n.d. / n.d. / n.d. / n.d. / n.d. / n.d.,0/18
F27N/N30Q/R57K/A101S,Ctrl,n.d. / n.d. / n.d. / n.d. / n.d. / n.d.,0/18
F27E/N30D/R56L/G61E,Ctrl,n.d. / n.d. / n.d. / n.d. / n.d. / n.d.,0/18
S31D/S53A/G61S/S63K/S107T,Ctrl,-0.71 / -0.69 / -1.05 / -0.98 / -0.87 / -0.27,0/18
T28N/D106R,Ctrl,n.d. / n.d. / n.d. / n.d. / n.d. / n.d.,0/18
T58K/G61S/K65R/A101E/S107Y,Ctrl,0.39 / 0.31 / 0.67 / n.d. / 0.99 / 0.91,0/18
Y32Q/G61A/R100Q/T104A,Ctrl,n.d. / n.d. / n.d. / 2.83 / n.d. / n.d.,0/18
T28S/S31M/F59Y,Ctrl,1.04 / 0.90 / 1.01 / 1.06 / 0.72 / 0.65,0/18
T28N/S31K/Y32W/G61A/D62I/T104L,Ctrl,n.d. / n.d. / n.d. / n.d. / n.d. / n.d.,0/18
T28H/R56M/R100M,Ctrl,n.d. / n.d. / n.d. / n.d. / n.d. / n.d.,1/18 (0.68)
T28S/L29I/S31Q/S107V,Ctrl,0.14 / 0.12 / 0.15 / 0.01 / 0.20 / -0.12,0/18
R56K/G61T,Ctrl,1.41 / 1.13 / 1.35 / 0.75 / 1.03 / 1.22,1/18 (0.77)
S53A/T104P/D106V,Ctrl,n.d. / n.d. / n.d. / 2.47 / 2.08 / n.d.,1/18 (2.60)
T28S/A102Y/F105K/S107W,Ctrl,n.d. / 1.95 / n.d. / n.d. / n.d. / n.d.,0/18
T28D/S63K/T104G,Ctrl,n.d. / n.d. / n.d. / n.d. / n.d. / n.d.,0/18
S31E/G61S/A102S,Ctrl,2.33 / n.d. / n.d. / 1.73 / 1.97 / n.d.,1/18 (1.75)
Y52E/A101T,Ctrl,n.d. / n.d. / n.d. / n.d. / 1.28 / n.d.,0/18
F59A/D62P,Ctrl,n.d. / n.d. / n.d. / n.d. / n.d. / n.d.,0/18
D106K/S107M,Ctrl,n.d. / n.d. / n.d. / n.d. / n.d. / n.d.,0/18
F27Y/S31E/G61K/A101I/S107Q,Ctrl,n.d. / 2.49 / 1.61 / 1.82 / 1.64 / 1.32,0/18
T28D/S31E/R56L,Ctrl,-0.04 / -0.13 / -0.03 / -0.23 / -0.08 / 0.04,0/18
R100K/A101V,Ctrl+GPLM_Gen,1.03 / n.d. / 1.46 / n.d. / 1.11 / 2.21; n.d. / n.d. / 0.30 / n.d. / n.d. / n.d.,1/36 (2.65)

Repeated from above, the 3 best binders with a signal in all replicates:

| changes | group | log10 Kd, replicates | empty controls |
|---|---|---|---|
| S31D/S53A/G61S/S63K/S107T | Ctrl | -0.71 / -0.69 / -1.05 / -0.98 / -0.87 / -0.27 | 0/18 |
| T28D/S31E/R56L | Ctrl | -0.04 / -0.13 / -0.03 / -0.23 / -0.08 / 0.04 | 0/18 |
| T28S/L29I/S31Q/S107V | Ctrl | 0.14 / 0.12 / 0.15 / 0.01 / 0.20 / -0.12 | 0/18 |

From the AlphaSeq antibody data of Li et al. 2023 (doi:10.1038/s41467-023-39022-2), copy in the FLAb collection.